Legend:
Assay type in all cases: in vivo, medaka (Oryzias latipes)
[1] = test system: npba expression in Vs/Vp and PMm/PMg; experiment: npba expression in brain nuclei of gonad-intact medaka after immersion drug treatment (in situ hybridization); conditions: testis-intact adult males, 100 ng/ml E2 by immersion, n = 5
Description: (§1) DNA fragments of 645 bp, 647 bp, and 1520 bp corresponding to nucleotides 1–645 of the medaka npba cDNA (GenBank accession number NM_001308979), 1–647 of the medaka npbb EST clone of National BioResource Project (NBRP) Medaka (http://www.shigen.nig.ac.jp/medaka/) (clone ID: olova57o22), and 1699–3218 of the medaka npbwr2 cDNA (deposited in DDBJ/EMBL/GenBank with accession number LC375958), respectively, were PCR-amplified and subcloned into the pGEM-Teasy vector (Promega, Madison, WI). The resultant constructs were used to generate digoxigenin (DIG)-labeled cRNA probes for npba, npbb, and npbwr2 by using the DIG RNA Labeling Mix and T7 RNA polymerase (Roche Diagnostics). […] Color development was allowed to proceed overnight or was stopped after 2–3 hr (for quantification of npba expression in Vs/Vp) or 15–30 min (for quantification of npba expression in PMm/PMg) to avoid saturation. […]
(§2) To obtain quantitative data, the number of npba/npbb-expressing neurons in each brain nucleus or each brain/spinal cord region was counted manually. In some analyses, the resulting sections were photographed and converted to black and white binary images by thresholding using Adobe Photoshop (Adobe Systems, San Jose, CA), and the total area of npba/npbb expression was calculated by using ImageJ (http://rsbweb.nih.gov/ij/). […]

[2] = test system: npba expression in Vs/Vp and PMm/PMg; experiment: npba expression in brain nuclei of gonadectomized medaka after sex steroid supplementation (in situ hybridization); conditions: 100 ng/ml E2 by immersion, 6 days, n = 5 per group, p=0.0013 for Vs/Vp and 0.0006 for PMm/PMg
Description: as §1, §2

[3] = test system: npbb expression in Vs/Vp and PMm/PMg/PPp; experiment: npbb expression in brain nuclei of gonadectomized medaka after sex steroid supplementation (in situ hybridization); conditions: ovariectomized adult females, 100 ng/ml E2, 6 days; n = 5; p=0.0091 for Vs/Vp, 0.0173 for PMm/PMg
Description: as §1, §2

[4] = test system: npbb expression in Vs/Vp and PMm/PMg/PPp; experiment: npbb expression in brain nuclei of gonad-intact medaka after immersion drug treatment (in situ hybridization); conditions: testis-intact adult males, 100 ng/ml E2 by immersion, 9 days; n = 5
Description: as §1, §2

With `C[C@]12CC[C@@H]3c4ccc(O)cc4CC[C@H]3[C@@H]1CC[C@@H]2O` [E2, estradiol-17β] the “number of npba-expressing neurons in Vs/Vp and PMm/PMg” value ([1]; Vs/Vp p<0.0001 on days 2, 5, and 9, PMm/PMg p<0.0001 on day 9) was “steadily increased over time during treatment”, the “total area of npba expression in Vs/Vp and PMm/PMg” value ([1]; Vs/Vp p=0.0013 and <0.0001 on days 5 and 9, PMm/PMg p=0.0023 on day 9) was “steadily increased over time during treatment” and the “npba expression in Vs/Vp and PMm/PMg of castrated males” value [2] was “induced npba expression in both Vs/Vp and PMm/PMg”. The “npbb expression in Vs/Vp and PMm/PMg after ovariectomy” value [3] was “restored by treatment with E2” and the “npbb expression in Vs/Vp or PMm/PMg/PPp” value [4] was “no clear changes”.

— article PMC6684226, “Neuropeptide B mediates female sexual receptivity in medaka fish, acting in a female-specific but reversible manner” (eLife, 2019)
